These are literature values, as cited in patent US11833171B2, “Materials and methods relating to stabilised polymeric silicate compositions” (United Kingdom Research and Innovation, priority 2014, dated 2023).

For the data set the following is noted: 25° C.

For silicic acid [aqueous silicate], the “maximum solubility of aqueous silicate” value was 1700 µM.
